Assay: Antagonist activity at NR1/NR2B NTD truncated mutant receptor expressed in Xenopus oocytes assessed as ratio of residual current induced by agonist in presence of compound to residual current induced by agonist alone at 10 uM by two-electrode voltage-clamp method

Q: Which Ratio does the source give for `CCCN1C(N2CCN(CC(=O)c3cc4ccccc4[nH]3)CC2)=NC2C1C(=O)NC(=O)N2C` (stereo unspecified) here?
A: Its Ratio is 0.97.

Source: ChEMBL document CHEMBL1221329, “Identification of a novel NR2B-selective NMDA receptor antagonist using a virtual screening approach” (Bioorg Med Chem Lett, 2010)
